## AlphaSeq binding of Ab-95 light chain variants to a spike HR2 peptide

Data: MIT Lincoln Laboratory AlphaSeq set, Engelhart et al. 2022, doi:10.1038/s41597-022-01779-4, as distributed in FLAb.

Binding partner: SARS-CoV-2 spike HR2 peptide, sequence PDVDLGDISGINAS.

Parent: Ab-95, a human scFv built as VH, three GGGGS repeats, VL. Only the CDRs of the light chain vary.
VH: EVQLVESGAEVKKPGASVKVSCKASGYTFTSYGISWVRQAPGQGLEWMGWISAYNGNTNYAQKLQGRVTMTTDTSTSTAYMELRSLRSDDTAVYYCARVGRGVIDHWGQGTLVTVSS
VL: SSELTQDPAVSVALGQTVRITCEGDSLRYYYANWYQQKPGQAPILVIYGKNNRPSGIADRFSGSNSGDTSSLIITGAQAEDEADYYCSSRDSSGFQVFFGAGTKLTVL

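In library AAYL52, one, two or three CDR residues were substituted; doubles and triples were drawn at random. Affinity was read by AlphaSeq, a pooled yeast mating assay with surface-displayed partners. After mating in shaken culture at 30 °C for 16 h, diploids were selected and their barcode pairs sequenced. Each replicate has its own calibration line, from reference interactions of the BCL2 family. Mating was done three times.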

Positions count from residue 1 of the parent VL; L27I puts I in place of L. This list gathers variants with a substitution at N33 (VL, numbered from residue 1). The Kd shown is the geometric mean over detected replicates; a lower Kd is a better binder. A pair that was not seen in any replicate is written "nd"; this usually means weak binding, but a binder can also be missed. Background: pairings of library AAYL52 with three empty control strains gave a value in 28% of cases (median 8.2 µM, 5th percentile 800 nM). Values in that range, when seen in few replicates, are hard to tell from nonspecific mating.

For L27I/N33Q/S89K, the assay gave 2.1 µM (1 of 3 replicates). The variant N33W/P54Q/R90D gave 20 µM (1 of 3 replicates). The variant A32Y/N33Y/S88W gave 37 µM (2 of 3 replicates). The variant A32G/N33R/R90H gave 14 µM (2 of 3 replicates). The variant N33I/S93V/V97C showed 4.7 µM (3 of 3 replicates).

The variant A32H/N33Y/N52H showed 290 µM (1 of 3 replicates). The variant N33H/V97S showed 1.8 µM (1 of 3 replicates). With N33R/G49I/S55I the result was nd (0 of 3 replicates). The variant N33K/S89V/F98L showed 6.0 µM (2 of 3 replicates). With N33A/N51E/S88Y the result was 100 µM (3 of 3 replicates).

For Y29F/N33S/R90M, the assay gave 3.8 µM (1 of 3 replicates). The variant N33P/P54K/F95A gave 77 µM (2 of 3 replicates). The variant Y30E/N33S/F98W gave 110 nM (3 of 3 replicates). The variant N33D/P54I gave nd (0 of 3 replicates). The variant A32K/N33Y/S89F gave 2.5 µM (1 of 3 replicates).

With N33F/K50N the result was 660 nM (3 of 3 replicates). The variant N33L/S93V/F98K showed 24 µM (2 of 3 replicates). The variant N33I/S55M/S92H gave nd (0 of 3 replicates). For N33S/G49C, the assay gave 24 µM (1 of 3 replicates). The variant N33R/D91G/F95G showed 9.0 µM (2 of 3 replicates).

The variant L27N/N33P/S89N showed nd (0 of 3 replicates). The variant N33H/P54D/S88P showed 4.2 µM (2 of 3 replicates). The variant L27F/Y29D/N33Q showed 410 nM (3 of 3 replicates). With N33D/N51A/D91W the result was 7.8 µM (2 of 3 replicates). For E23D/N33P/D91I, the assay gave 44 µM (3 of 3 replicates).

The variant R28F/N33K/S93W showed 870 nM (2 of 3 replicates). The variant N33H/G49N/F98L gave 9.1 µM (1 of 3 replicates). With D25V/N33W the result was 1.5 µM (1 of 3 replicates). For Y31S/N33R/S88K, the assay gave 9.2 µM (1 of 3 replicates). With N33C/P54N/G94I the result was 1.2 µM (1 of 3 replicates).

With L27W/N33E/G49D the result was 590 µM (1 of 3 replicates). The variant E23M/N33Q/P54N showed 750 nM (1 of 3 replicates). The variant N33L/S55V/F98W showed 5.8 µM (1 of 3 replicates). The variant G24N/N33A/K50T gave 6.9 µM (1 of 3 replicates). The variant N33D/S92N/F95E showed nd (0 of 3 replicates).

With N33I/S88D the result was 970 nM (1 of 3 replicates). The variant E23D/N33T/G49R showed 39 µM (2 of 3 replicates). The variant E23L/G24L/N33A gave 3.2 µM (2 of 3 replicates). The variant Y31F/N33I/F98D gave nd (0 of 3 replicates). The variant Y31D/N33F/N52Q gave 4.0 µM (3 of 3 replicates).

For Y29R/N33R/F98I, the assay gave nd (0 of 3 replicates). With N33R/R53Y/V97W the result was nd (0 of 3 replicates). With R28W/N33A/D91H the result was 8.3 µM (1 of 3 replicates). With N33F the result was 2.2 µM (2 of 3 replicates). With R28H/N33Q/Q96T the result was 47 µM (1 of 3 replicates).

With Y29L/N33R/F95C the result was 1.2 µM (1 of 3 replicates). The variant N33D/S88Q/V97A showed 55 µM (2 of 3 replicates). With D25Q/N33D/P54H the result was 720 nM (3 of 3 replicates).